scFv variants of Ab-14 (light chain) against a SARS-CoV-2 spike peptide

From the AlphaSeq antibody data of Li et al. 2023 (doi:10.1038/s41467-023-39022-2), copy in the FLAb collection.

All variants were tested on one target, the spike HR2 peptide PDVDLGDISGINAS (SARS-CoV-2).

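The starting antibody came from a phage panning campaign against this peptide. Designed CDR sequences, proposed from the first random library and measured here. Several design methods are mixed in this list. The assay is AlphaSeq: two haploid yeast populations carry antibody and antigen on their surface. Binding brings cells together so that they mate, and sequencing counts the barcode pairs among the diploids. Scores were corrected for input abundance and mapped to Kd with protein pairs of known affinity run in the same pool. There are six technical replicates.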

The variants keep the heavy chain, the linker and the frameworks of Ab-14 (scFv order VH, a 15-residue (Gly4Ser)3 linker, VL).
VH: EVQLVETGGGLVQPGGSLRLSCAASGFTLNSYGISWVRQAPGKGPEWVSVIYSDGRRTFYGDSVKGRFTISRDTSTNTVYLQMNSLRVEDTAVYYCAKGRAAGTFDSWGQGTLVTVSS
VL: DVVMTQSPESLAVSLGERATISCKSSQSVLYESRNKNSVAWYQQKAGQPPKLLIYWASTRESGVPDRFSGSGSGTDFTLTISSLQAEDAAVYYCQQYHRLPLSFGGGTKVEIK

The parent's light chain CDRs are KSSQSVLYESRNKNSVA, WASTRES, QQYHRLPLS; each variant's own CDRs replace them letter for letter. This list holds designs with more than six substitutions. Values are log10 of the apparent Kd in nM; lower means stronger binding. Averages over replicates are reported, and they cover detected replicates only. The authors averaged sequences with at least three values out of six and counted those with two or fewer as poor binders.

- KWQYSWLGSSRNKNSVA, EGSTRES, QQYHRLPLS: 0.87 (6 of 6 replicates; controls 3 of 18)
- TLMHHQDRQDNWKKSIA, EAIIRES, QQYSRLPLA: 2.14 (6 of 6 replicates; controls 1 of 18)
- KVSQKDPMGSRNKNSVA, EASVRED, QQYHRLPLS: -0.14 (6 of 6 replicates; controls 2 of 18)
- KLYQSNKYESRMKNSVA, NASQRMQ, QQYHRLPLS: 0.91 (6 of 6 replicates; controls 1 of 18)
- MISQIYNMGQFAINSVA, QASTRNA, QQYDRLPLM: 1.59 (6 of 6 replicates; controls 2 of 18)
- KLYQNVGTMSLNKQSIA, DMERRED, QQYHRLPLS: 0.46 (6 of 6 replicates; controls 0 of 18)
- MISDLMLYGSRASNPIA, NAETREY, QQYHRLPLE: 1.53 (2 of 6 replicates; controls 0 of 18)
- QLSLMENHMGDRMHNVA, DTNQAKM, QDYFRLPLM: 0.32 (6 of 6 replicates; controls 0 of 18)
- KSEQLYYYGDRNKNSVA, QASTRES, QQYHRLPLS: 0.04 (6 of 6 replicates; controls 0 of 18)
- MLSQMTGLGMKVSNSVA, QASMRFN, QQYERLPLI: 2.25 (4 of 6 replicates; controls 0 of 18)
- MMSQVTGLGQRHRNNVA, QTSTRED, QQYDRLPLI: 0.88 (6 of 6 replicates; controls 2 of 18)
- KLSMVTGHMSVSKNNVA, EMETREE, QQYDRLPLS: 0.43 (6 of 6 replicates; controls 0 of 18)
- SLQTKYSTAQDRWSNIA, HADQVEA, QQYFRLPIV: 1.36 (6 of 6 replicates; controls 0 of 18)
- MVSQLMVWGMHTKNSIA, EAQTRIN, QQYDRLPLF: 1.75 (5 of 6 replicates; controls 0 of 18)
- IISQVDGYLMHNTNSIA, DQTTRGS, QQYDRLPLS: 0.86 (6 of 6 replicates; controls 0 of 18)
- KLMQSMLYESRNSNSVA, NASTREH, QQYHRLPLM: 0.25 (6 of 6 replicates; controls 0 of 18)
- MISQLMNLGQFAINSVA, QASIRTE, QQYDRLPLA: 2.01 (5 of 6 replicates; controls 2 of 18)
- SIRQVTDDLQATHDAIA, DASQIEP, QQYSWLPLS: 2.02 (6 of 6 replicates; controls 2 of 18)
- KLRMSTGYEMRNKDSIA, DNSTRGR, QQYHRLPLS: 1.14 (6 of 6 replicates; controls 1 of 18)
- KITDKFLTEGNGRQNIA, HAMVAYE, QQYQQLPLA: 0.72 (6 of 6 replicates; controls 2 of 18)
- TISQLYNQALGMRNNVA, NNQTRED, QQYKRLPLS: 1.74 (6 of 6 replicates; controls 0 of 18)
- KLIQSVAMSSRNKSSIA, DNSTRES, QQYHRLPLS: 2.30 (6 of 6 replicates; controls 0 of 18)
- KVSQEDDYQSRNINSVA, DASLRES, QQYHRLPLS: 0.16 (6 of 6 replicates; controls 2 of 18)
- QITHNQLDYKNREANIA, HESMRLV, QQYSQLPLT: 1.85 (6 of 6 replicates; controls 1 of 18)
- TISYSALMTGLNRNSVA, QAEERLD, QQYHRLPLS: 0.45 (6 of 6 replicates; controls 1 of 18)
- SLENLTNEQNAYGSNIA, NADVLVY, QQYYRLPIV: 1.07 (6 of 6 replicates; controls 0 of 18)
- MISQSFLIGMKAKNSVA, QTSTREA, QQYDRLPLA: 0.52 (6 of 6 replicates; controls 3 of 18)
- TISQSAVMESHNKNSVA, DLNVRGS, QQYDRLPLS: 0.18 (6 of 6 replicates; controls 0 of 18)
- HISMITLQGMRQRNSVA, QMTTREN, QQYDRLPLS: 2.42 (6 of 6 replicates; controls 0 of 18)
- MISQLYNMGQFAINSVA, QASTRHE, QQYDRLPLM: 1.02 (5 of 6 replicates; controls 0 of 18)
- MISGLMLAGSRNKNPIA, NASTREY, QQYHRLPLS: 2.14 (6 of 6 replicates; controls 1 of 18)
- RVQMGDQPGKTARNNIA, DGEEGYR, QQYARLPLS: 0.38 (6 of 6 replicates; controls 0 of 18)
- HIDQFTSYDNGEDRAIA, DVTIRDY, QQYARLPLL: 0.88 (6 of 6 replicates; controls 2 of 18)

Empty control strains, which show no peptide, gave a signal in 4% of pairings with all light chain designs; the median was 2.64 and 95% of these signals were weaker than 1.59. No background was subtracted. For each scFv, signals with the empty controls are counted beside the result. Values of this round are not directly comparable with the first-round values of the same sequences. The parent sequence was in this pool as ten entries: three were never detected, three once, and four in most replicates, with averages from 0.34 to 2.37.